From paper PMC2653091 (Journal of medicinal chemistry, 2009) come the findings set out here.

This experiment relates to endogenously expressed muscarinic receptors. The following applies: HEK293mNPSR cells, control.

In the case of `C[N+](C)(C)CCOC(N)=O` [Carbachol], the “Carbachol Emax” value is on record as 305 ± 31 % over basal and the “Carbachol pEC50” value was determined as 5.58.
